Assay results reported in patent US7439039B2, “Assays for novel serotonin transporter (SERT) blockers” (priority 2003, dated 2008).

Sequences of proteins named here, by UniProt entry; tags and fusion partners are left off.
UniProt Q60857, whole entry G39E/K152R: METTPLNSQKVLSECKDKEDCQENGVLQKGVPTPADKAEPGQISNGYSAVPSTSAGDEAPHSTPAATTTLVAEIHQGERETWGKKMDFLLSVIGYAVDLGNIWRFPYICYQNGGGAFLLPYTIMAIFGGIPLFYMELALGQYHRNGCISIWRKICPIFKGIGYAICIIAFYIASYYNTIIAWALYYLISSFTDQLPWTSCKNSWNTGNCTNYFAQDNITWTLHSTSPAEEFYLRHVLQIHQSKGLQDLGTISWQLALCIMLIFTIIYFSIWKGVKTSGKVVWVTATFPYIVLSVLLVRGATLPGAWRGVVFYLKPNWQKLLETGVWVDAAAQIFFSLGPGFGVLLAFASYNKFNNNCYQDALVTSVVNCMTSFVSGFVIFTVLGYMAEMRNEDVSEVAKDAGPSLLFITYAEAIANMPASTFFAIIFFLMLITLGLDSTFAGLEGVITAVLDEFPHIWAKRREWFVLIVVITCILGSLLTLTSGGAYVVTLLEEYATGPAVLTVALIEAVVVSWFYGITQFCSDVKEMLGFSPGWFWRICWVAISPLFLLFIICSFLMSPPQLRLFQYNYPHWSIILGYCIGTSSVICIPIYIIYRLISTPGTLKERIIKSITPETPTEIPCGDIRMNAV

Biological target: mSERT WT (Mus musculus, UniProt Q60857, G39E/K152R)
Experiment: cell-based

Molecule NCCc1c[nH]c2ccc(O)cc12 [5HT, 5-hydroxytryptamine] has an EC50 of 600 nM.
CN1c2ccccc2C(NCCCCCCC(=O)O)c2ccc(Cl)cc2S1(=O)=O (centres unmarked) [Tianeptine] gave an EC50 of 3800 nM.
